# The entries are a selection whose mix differs from that of the whole data set. Some of these compounds have results that are not shown, active ones among them. Active and inactive are the calls of the source. Calls follow the shape of the dose curve; as a rule, active = well fitted inhibition curve with a large enough effect; inconclusive = small, poorly fitted or top-dose-only effect; inactive = flat fitted curve, though single readings scatter.
# Tested on: Uracil-DNA glycosylase
# Test: Primary qHTS assay for inhibitors of Activation Induced Cytidine Deaminase (AID): UDG Counterscreen signal; also: nearly all actives have a fitted effect of over 65% in size
# Settings: FRET deamination/UDG coupled assay, UDG read, 4 h; at 115 µM (top of the series)
# Source text: Assay Provider (PI) Patricia Gearhart Ph.D.
# National Institute on Aging
# National Institute of Health (NIH), Bethesda, MD
# Assay Provider (PI) Rahul Kohli Ph.D.
# Perelman School of Medicine
# University of Pennsylvania, Philadelphia, PA
# Activation-Induced Deaminase (AID) is a cytosine deaminase which converts cytosine into uracil within stretches of ssDNA. The presence of uracil in DNA initiates a cascade of mutagenic DNA repair to introduce point mutations and DNA double strand breaks. Specific targeting of AID to the immunoglobulin heavy chain loci (Igh) promotes mutagenesis in the antibody variable region for somatic hypermutation (SHM) or switch regions leading to class switch recombination (CSR). However, AID also plays a role in accumulating unnecessary mutations across the genome. Mis-targeting of AID results in the initiation of tumor development and leads to greater drug resistance among cancer cells when continually expressed. To identify an AID inhibitor, a small molecule library will be screened in collaboration with NCATS core facility at NIH. To confirm biological function, inhibitors will be examined in an in vitro murine B-cell activation assay and subsequent secondary validation screens. Top molecules will be further screened to identify inhibitory efficacy against a wild type primary splenocytes assay. Using these approaches, we hope to identify a small molecule with great efficacy and low toxicity for use as a molecular probe to further characterize AID's intricacies, or even as a therapeutic.
# A FRET based analysis of cytosine deamination, was developed to identify potential inhibitors of AID catalytic activity. This screen has two signal output, Read 1 evaluates the AID inhibition response. The second readout (Read 2) evaluates UDG response and is uses as a counterscreen to exclude false positive inhibitors. Inhibition in AID and inactivity in the UDG signal is the desired outcome for this assay.
# SEQUENCE No. (e.g., 1, 2, 3, etc.); […] (e.g., Cells, Incubation, Reagent, etc.); VALUE; DESCRIPTION
# 1a; Reagent; 3 uL; [4/3x] 1 uM AID/2.67 U/mL UDG
# 1b; Reagent; 3 uL; 2 U/mL UDG
# 1c; Reagent; 3 uL; 1 uM AID
# 2a; Compound; 46 nL; Follow-up plates (0.64 uM - 10 mM)
# 2b; Control; 46 nL; ATA ([…] - 10 mM)
# 3; Time; 10 min; incubation at room temperature
# 5; Time; 4 hr; incubation at room temperature
# 6; Reagent; 4 uL; [2x] 250 mM NaOH
# 7; Time; 15 sec; centrifuge at 1000 rpm
# 8; Time; 30 min; incubation at room temperature
# 9a; Detection; fluorescence (Read 1: AID); EnVision (PerkinElmer) plate reader, 540 excitation and 590 emission filters
# 9b; Detection; fluorescence (Read 2: UDG); EnVision (PerkinElmer) plate reader, 560 excitation and 665 emission filters
# NOTES (numbers refer to sequence above)
# 1a; Reagents were dispensed in a medium-binding black solid-bottom Greiner plates (789176F) using a BioRptr liquid dispenser. Dispense 3 uL of [4/3x] 1 uM AID (provided by Kohli lab) and [4/3x] 2 U/mL UDG (NEB M0280L) into columns 1, 2, 5 to 48.
# 1b; Dispense 3 uL of [4/3x] 2 U/mL UDG into column 3.
# 1c; Dispense 3 uL of [4/3x] 1 uM AID into column 4.
# 2a; Compound (7-points [uM] (0.64; 3.2; 16; 80; 400; 2,000; 10,000; 20,000) double pin-transferred (Dip Factor = 2) using the Kalypsys (Wako USA) pintool equipped with a 1536 pinhead for a final concentration range of 7.32 nM - 114 uM.
# 2b; 10 mM Aurintricarboxylic Acid (Sigma A1895) (ATA, 8-point, n = 2, 1:2.5 dilution in column 2) double pin-transferred (Dip Factor = 2) using the Kalypsys (Wako USA) pintool equipped with a 1536 pinhead for a [final] range of 186 nM - 114 uM.
# 3; Room temperature incubation.
# 4; Dispense 1 uL of substrate mixture from the Kohli lab [4x] […] DJC20 and [4x] 250 nM DJC23 into columns 1 to 48 .
# 5; Room temperature incubation.
# 6; Dispense 4 uL of substrate mixture [2x] 250 mM NaOH into columns 1 to 48.
# 7; Centrifugation step to remove bubbles.
# 8; Room temperature incubation
# 9a; Fluorescence signal (column label AID) was read using the EnVision plate reader. […]
# % is scaled to controls: 0 for no effect and ±100 for the full control effect.
row,Structure (SMILES),"activity change, negative = inhibition"
1,O=C(CCC1CCCCC1)N1CCN(C/C=C/c2ccccc2)CC1,inactive: -6.4%
2,CC(CCN(CCCl)CCCl)c1ccccc1 (stereo not given),inactive: -2.6%
3,CN(C)C1(CNC(=O)c2cccc(Cl)c2)CCCCC1,inactive: -1.1%
4,CN(C)C1(CNC(=O)c2ccccc2F)CCCCC1,inactive: 4.7%
5,CN(C)C1(CNC(=O)c2ccccc2[N+](=O)[O-])CCCCC1,inactive: 14.9%
6,CCCCOc1ccccc1C(=O)NCC1(N(C)C)CCCCC1,inactive: -8.59%
7,CN(C)CCOC(=O)C(O)(c1ccccc1)C1CCCCC1 (stereo not given),inactive: 8.19%
8,CN(C)C1(CNC(=O)c2cccs2)CCCCC1,inactive: -10.1%
9,CCOc1cccc(C(=O)NCC2(N(C)C)CCCCC2)c1,inactive: 4.22%
10,COc1ccc(C(=O)NCC2(N(C)C)CCCCC2)cc1Cl,inactive: -0.199%
11,COc1cccc(C(=O)NCC2(N3CCOCC3)CCCCC2)c1,inactive: -12.5%
12,CC(C)COc1ccc(C(=O)NCC2(N(C)C)CCCCC2)cc1,inactive: -23.8%
13,Cc1cccc(C(=O)NCC2(N(C)C)CCCCC2)c1,inactive: -1.6%
14,COc1cc(C(=O)NCC2(N(C)C)CCCCC2)cc(OC)c1OC,inactive: 11.2%
15,CC(C)Oc1ccc(C(=O)NCC2(N(C)C)CCCCC2)cc1,inactive: -14.4%

# — PubChem BioAssay AID1347430 (National Center for Advancing Translational Sciences (NCATS), 2020)
